Data published in article PMC2806825, “The Expression Level of CB1 and CB2 Receptors Determines Their Efficacy at Inducing Apoptosis in Astrocytomas” (PLoS ONE, 2010).

Protein sequences, listed by entry. Tags and fused reporters are not part of them.
UniProt P47746, whole entry: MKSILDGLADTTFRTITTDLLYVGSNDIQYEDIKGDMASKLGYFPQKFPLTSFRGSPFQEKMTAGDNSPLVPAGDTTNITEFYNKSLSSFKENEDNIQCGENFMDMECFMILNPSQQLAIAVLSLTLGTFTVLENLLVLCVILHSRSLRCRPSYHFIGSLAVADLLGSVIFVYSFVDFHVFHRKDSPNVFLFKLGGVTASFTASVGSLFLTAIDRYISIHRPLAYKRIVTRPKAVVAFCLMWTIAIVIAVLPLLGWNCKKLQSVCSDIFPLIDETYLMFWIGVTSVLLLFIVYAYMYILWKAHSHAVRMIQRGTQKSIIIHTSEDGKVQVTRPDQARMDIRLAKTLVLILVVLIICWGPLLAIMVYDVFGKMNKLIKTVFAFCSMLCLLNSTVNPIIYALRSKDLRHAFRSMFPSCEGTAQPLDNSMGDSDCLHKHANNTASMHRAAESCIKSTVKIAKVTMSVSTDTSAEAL

How the values were obtained:
[1] = biological target: T1, CB1 receptors (Mus musculus, UniProt P47746); test: AKT phosphorylation by Luminex multiplex immunoassay in CB1-expressing DBT subclones; type: cell-based; details: 1 µM
T1 construct: expressed in transfected cells

[2] = biological target: T1, CB1 receptors; test: ERK1/2 phosphorylation by Western blot in CB1-expressing DBT subclones; type: cell-based; details: 1 µM

## (−)-cis-3-[2-hydroxy-4-(1,1-dimethylheptyl)phenyl]-trans-4-(3-hydroxypropyl) cyclohexanol [CP-55,940]
[1]; CB1-high subclone
  Time of peak of AKT phosphorylation: 3 min
  Time of return of AKT phosphorylation to the basal level: 5 min
[1]; CB1-low subclone
  AKT phosphorylation: did not significantly increase
[1]; CB1-mid and CB1-high subclones
  AKT phosphorylation: most pronounced increase
[2]; 5 min, CB1-low, CB1-mid, CB1-high subclones
  ERK1/2 phosphorylation above vehicle-treated controls: significant increase
[2]; CB1-expressing subclones
  Time of peak of ERK1/2 phosphorylation: 5 min
  Time of return of ERK1/2 phosphorylation to basal: 20 to 30 min
